Measurements reported in ChEMBL document CHEMBL1122495, “Ultra-short-acting beta-adrenergic receptor blocking agents. 3. Ethylenediamine derivatives of (aryloxy)propanolamines having esters on the aryl function” (J Med Chem, 1983).

Organism: Cavia porcellus
Assay: Negative log concentration effecting 50% blockade of isoproterenol-induced rate responses in vitro in guinea pig right atria.
Format: functional
Details: read-out: pA2 (converted)

**Q.** With `COC(=O)c1ccccc1OCC(O)CNCCc1ccc(OC)c(OC)c1` (stereo unspecified) as the compound, how does the Kb read?
**A.** 5.01 nM
